# Data reported in ChEMBL document CHEMBL1129668 (J Med Chem, 1996).
# The chains behind the UniProt entries cited, without tags or fusion partners.
# UniProt Q9WTR4, whole entry: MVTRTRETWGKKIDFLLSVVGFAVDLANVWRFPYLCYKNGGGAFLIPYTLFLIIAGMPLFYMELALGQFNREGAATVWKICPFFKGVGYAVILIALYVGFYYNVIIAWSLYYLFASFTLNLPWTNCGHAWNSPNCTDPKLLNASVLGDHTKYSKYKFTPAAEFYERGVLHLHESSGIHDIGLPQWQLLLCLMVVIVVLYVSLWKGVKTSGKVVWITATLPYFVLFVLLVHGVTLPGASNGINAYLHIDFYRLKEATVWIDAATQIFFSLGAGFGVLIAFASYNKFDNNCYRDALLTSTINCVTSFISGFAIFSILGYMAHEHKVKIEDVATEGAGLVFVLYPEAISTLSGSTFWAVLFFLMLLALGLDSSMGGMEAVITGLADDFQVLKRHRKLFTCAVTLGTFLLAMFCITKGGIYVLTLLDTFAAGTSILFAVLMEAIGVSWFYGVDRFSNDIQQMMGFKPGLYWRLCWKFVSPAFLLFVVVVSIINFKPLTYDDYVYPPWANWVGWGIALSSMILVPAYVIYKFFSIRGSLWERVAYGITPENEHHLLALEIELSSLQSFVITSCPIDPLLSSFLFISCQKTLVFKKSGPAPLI
# Target: Norepinephrine transporter (Rattus norvegicus, UniProt Q9WTR4)
# Experiment: In vitro binding affinity towards Norepinephrine transporter rat cerebral cortical homogenates by [3H]nisoxetine displacement.
# Method in brief: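 Crude membrane fraction of rat frontoparietal cerebral cortex in 50 mM Tris-HCl (pH 7.4) with Na+, K+ (5 mM). […] Typically six concentrations in duplicate; curves computer-fit for IC50, converted to Ki = IC50/(1 + [L]/K_d).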
compound,measurement,value
COC(=O)[C@H]1[C@@H](OC(=O)c2ccccc2)C[C@@H]2CC[C@H]1N2C [COCAINE],Ki,> 30 µM
